Source: article PMC2358886, “Evolution of pharmacologic specificity in the pregnane X receptor” (BMC Evolutionary Biology, 2008)

Experiments:
[1] = target: T1, zebrafish PXR (Danio rerio, UniProt A5WYG8)
T1 sequence (A5WYG8 144-430): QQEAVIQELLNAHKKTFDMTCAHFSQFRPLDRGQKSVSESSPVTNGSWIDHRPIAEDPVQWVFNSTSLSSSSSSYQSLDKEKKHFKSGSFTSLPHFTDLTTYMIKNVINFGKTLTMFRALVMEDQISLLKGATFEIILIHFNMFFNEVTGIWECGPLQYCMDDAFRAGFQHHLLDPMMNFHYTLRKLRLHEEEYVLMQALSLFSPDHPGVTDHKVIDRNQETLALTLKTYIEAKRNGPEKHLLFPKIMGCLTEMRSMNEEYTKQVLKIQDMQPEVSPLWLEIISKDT

[2] = target: T2, human PXR (Homo sapiens, UniProt O75469)
T2 sequence (O75469 1-434): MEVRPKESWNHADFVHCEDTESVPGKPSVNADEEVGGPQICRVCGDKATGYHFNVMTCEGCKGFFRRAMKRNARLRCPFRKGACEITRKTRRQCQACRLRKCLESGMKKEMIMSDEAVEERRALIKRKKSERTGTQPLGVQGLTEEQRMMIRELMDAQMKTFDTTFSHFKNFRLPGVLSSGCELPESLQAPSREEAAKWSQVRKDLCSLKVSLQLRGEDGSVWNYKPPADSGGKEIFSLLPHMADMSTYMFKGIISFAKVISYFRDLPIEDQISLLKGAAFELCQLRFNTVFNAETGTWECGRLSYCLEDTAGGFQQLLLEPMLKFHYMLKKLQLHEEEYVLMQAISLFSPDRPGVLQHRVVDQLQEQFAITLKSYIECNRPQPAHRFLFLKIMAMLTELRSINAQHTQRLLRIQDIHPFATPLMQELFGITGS

[3] = test system: HepG2 cells

Substance: Hyperforin [MI19]
- zfPXR Activity [1]: None
- hPXR Activity [2]: 7.22
- hPXR Efficacy [2]: 1.29
- Toxicity [3]: 50 µM
